# Assay results taken from patent US7388124B2 (priority 2001, dated 2008).
# System: rat pain model variants
# Assay type: in vivo, Sprague Dawley rats
# Conditions: Ketorolac 10% 0.1 cc IP; for von Frey F 4.93 # ST[…]-ANALGESIC: of 6
# Protocol: Male Sprague Dawley rats initially weighing between 150 and 175 grams were housed singly. […] The pain behaviors studied were static mechanical allodynia (e.g., light touch stimulation with von Frey fibers 4.56, 4.73, 4.93, and/or 5.07), dynamic mechanical allodynia (e.g., stimulation with moving camel hair brush), and/or mechanical hyperalgesia (e.g., pinprick stimulation).
# After the baseline control data was collected, the specified procedure with a gel was performed near the chosen nerve of each variant group (see Tables 2-6 and 8-10), then the rats were tested post procedurally and intermittently for up to 77 days for behavioral changes (see Tables 2-6 and 8-11) and for their responses to substances with analgesic properties (see Tables 7 and 12).
# The stimuli used to elicit pain behavior were the von Frey fibers, camel hair brush and pinprick, with 6 stimulations of each stimulus.
# The tunnels identified by the above studies were then used for the placement of the biocompatible gels by the chosen peripheral nerves. The gelatinous or viscous substances (i.e., the gels) placed by the peripheral nerves or nerve roots contained collagen (e.g., AVITENE® and gelatin) or hydrogels. The “collagen gel” used in the present study was composed of 0.8 grams of collagen as AVITENE® (microfibrillar collagen hemostat flour, Davol Inc., Cranston, R.I. 02920) and 0.7 grams of collagen as gelatin (Knox gelatin, Kraft Foods, Northfield, Ill. 60093) mixed with 14 cc of normal saline until homogenous. Then the collagen mixture was placed in a PYREX® bowl resting in a paper bowl and covered with a ceramic saucer, then heated for 20 seconds at full power in a microwave. The resulting viscous mixture was kept fluid in a warm water bath at 100-110° F., until used for the placement procedure. The wound hydrogels used in the present study were two types: one contains alginate (SAF-Gel® from ConvaTec of E. R. Squibb & Sons, Princeton, N.J.) and the other contains acemannan from Aloe vera L. (Carrasyn®V from Carrington Laboratories, Irving, Tex.). […] Such hydrogels are used in the care of open dermal wounds as well as in first and second degree burns since they provide a closed moist environment for wound healing.
# The rats were anesthesized with 1.5% to 2% isoflurane for the percutaneous kinesthetic placement of the above “gels” by the specified nerves. Using an angled 23 gauge thin wall 1″ needle, approximately 0.1 cc-0.2 cc of gel was placed percutaneously with kinesthetic technique in the anatomically defined fascial tunnels of the chosen peripheral nerves as described below.
# The doses were given intraperitoneally (I.P.) and behavioral stimulus testing began 40-80 minutes after the dose. The student's t-test (p<0.05) was performed for determining the significance of changes in behaviors associated with pain after the analgesic was administered.
compound,measurement,setting,value
"O=C(c1ccccc1)c1ccc2n1CCC2C(=O)O (centres unmarked) [Ketorolac, ketorolac]",von Frey F 4.93 # ST[…]-ANALGESIC,"1 rat peroneal n. with Avitene collagen, pre 6",6
same,von Frey F 4.93 # ST[…]-ANALGESIC,"1 rat tibial n. with Acemannan hydrogel, pre 6",5
same,von Frey F 4.93 # ST[…]-ANALGESIC,"1 rat tibial n. with Alginate hydrogel, pre 6",6
same,von Frey F 4.93 # ST[…]-ANALGESIC,"single rats sciatic n. with Alginate hydrogel (two rats, pre 5 and 6)",2 and 3
same,"von Frey F 4.93 # ST[…]-ANALGESIC, Total","total of 5 rats, pre total 29, pre vs post p=1.6E-1",22

# Values joined by “and” are separate entries in the source; they are usually repeats but may differ in a detail not shown here. Equal values may be shown once. Read-outs that look alike come from different tables or passages of the source.
